Test results reported in PubChem BioAssay AID1051 (The Scripps Research Institute Molecular Screening Center, 2008).
Only a part is listed here, and it is no random draw. Calls of active or inactive are those of the source. Rule as the data show it: active = TR-FRET ratio above about 2300; inactive = the rest.

Experiment: signal artefacts in PPARgamma/SRC-1 readout – biochemical, TR-FRET emission ratio, artefact control for PPARgamma SRC-1 recruitment agonists, primary screen (AID 1051)
Conditions: TR-FRET detection artefact counter-screen, at 8 µM, hits give high values

Compound	TR-FRET ratio
O=[N+]([O-])c1cc([N+](=O)[O-])c(-n2nnc3ccccc32)c([N+](=O)[O-])c1	inactive: 1650
CP(=O)(Nc1ccc(SC(F)(F)F)cc1)Oc1ccccc1 (stereo not given)	inactive: 1680
CCCOc1ccc(NP(C)(=O)Oc2ccc(Cl)cc2)cc1 (stereo not given)	inactive: 1660
CN1CCCCC1COC(=O)C1(O)c2ccccc2CCc2ccccc21 (stereo not given)	inactive: 1580
CC1=NCCc2c1[nH]c1ccccc21.O=[N+]([O-])c1cc([N+](=O)[O-])c(O)c([N+](=O)[O-])c1	inactive: 2000
CCOC(=O)c1ccc(NP(C)(=O)Oc2cc(C)cc(C)c2)cc1 (stereo not given)	inactive: 1600
CP(=O)(Nc1cccc(Br)c1)Oc1ccccc1 (stereo not given)	inactive: 1950
CCN(CC)CCCOC(=O)C(O)(c1ccccc1)c1ccccc1	inactive: 1960
O=[N+]([O-])c1ccc2c(c1)C=Nc1ccccc1O2	inactive: 1830
CC(C)(C)c1ccc(OP(C)(=O)Nc2ccc(SC(F)(F)F)cc2)cc1 (stereo not given)	inactive: 1660
Cc1cccc(C)c1OP(C)(N)=O (stereo not given)	inactive: 1840
Cc1cc(C)cc(OP(C)(N)=O)c1 (stereo not given)	inactive: 1850
COc1ccccc1OP(C)(=O)Nc1cc(Cl)ccc1C (stereo not given)	inactive: 1840
COc1ccccc1OP(C)(=O)Nc1ccc(C)cc1 (stereo not given)	inactive: 1650
Cc1ccc(NP(C)(=O)Oc2ccccc2)c(C)c1 (stereo not given)	inactive: 1700
CCOC(=O)c1ccc(NP(C)(=O)Oc2ccccc2)cc1 (stereo not given)	inactive: 1780
CP(=O)(Nc1ccccc1Br)Oc1ccccc1 (stereo not given)	inactive: 1940
COc1ccccc1OP(C)(=O)Nc1ccccc1 (stereo not given)	inactive: 1820
Cc1cc(C)cc(OP(C)(=O)Nc2ccc(SC(F)(F)F)cc2)c1 (stereo not given)	inactive: 1700
Cc1cccc(C)c1OP(C)(=O)Nc1ccc(SC(F)(F)F)cc1 (stereo not given)	inactive: 1750

Compound	TR-FRET ratio
CP(=O)(Oc1ccccc1)OC(c1ccccc1)C(F)(F)F (stereo not given)	inactive: 1940
CCOC(=O)c1ccc(NP(C)(=O)Oc2ccc(OC)cc2)cc1 (stereo not given)	inactive: 1560
CCOP(C)(=S)SCC(=O)NC(C)C(=O)O (stereo not given)	inactive: 2030
CCc1ccc(OP(C)(=O)Nc2cccnc2)cc1 (stereo not given)	inactive: 1760
COc1ccc(OP(C)(=O)Nc2ccc(Br)cc2)cc1 (stereo not given)	inactive: 2060
CN(C)C(=O)c1c([N+](=O)[O-])cc([N+](=O)[O-])cc1[N+](=O)[O-]	inactive: 2130
COc1ccccc1OP(C)(=O)Nc1ccccc1Br (stereo not given)	inactive: 1610
CCOC(=O)c1ccc(NP(C)(=O)Oc2ccc(Cl)cc2)cc1 (stereo not given)	inactive: 1860
COc1ccc(OP(C)(=O)Nc2ccccc2Br)cc1 (stereo not given)	inactive: 2030
Cc1cc(C)cc(OP(C)(=O)Nc2cccc(C(F)(F)F)c2)c1 (stereo not given)	inactive: 1740
CP(=O)(OCCOc1ccccc1)OCCOc1ccccc1	inactive: 1770
CP(=O)(Nc1ccc(Cl)cc1Cl)Oc1ccccc1 (stereo not given)	inactive: 1830
O=[N+]([O-])c1cc([N+](=O)[O-])c(Nc2ccccn2)c([N+](=O)[O-])c1	inactive: 1780
CC(C)c1ccc(OP(C)(=O)Nc2ccc(SC(F)(F)F)cc2)cc1 (stereo not given)	inactive: 1860
O=C(OCCN1CCN(CCOCc2ccccc2)CC1)C(O)(c1ccccc1)c1ccccc1	inactive: 1560
CCOC(=O)c1ccc(NP(C)(=O)Oc2ccc(F)cc2)cc1 (stereo not given)	inactive: 1920
COc1ccc(OP(C)(=O)Nc2ccc(SC(F)(F)F)cc2)cc1 (stereo not given)	inactive: 1770
COc1ccc(NP(C)(=O)Oc2ccccc2OC)cc1 (stereo not given)	inactive: 1870
O=[N+]([O-])c1cc([N+](=O)[O-])c(NCC2CCS(=O)(=O)C2)c([N+](=O)[O-])c1 (stereo not given)	inactive: 2040
Cc1ccccc1NP(C)(=O)Nc1ccccc1C	inactive: 1700
